Data from ChEMBL document CHEMBL5154699 (Eur J Med Chem, 2022).

Protein sequences, listed by entry. Tags and fused reporters are not part of them. Lines headed by an entry give the natural chain unless they say otherwise; changes in a name come on top.
UniProt P41144: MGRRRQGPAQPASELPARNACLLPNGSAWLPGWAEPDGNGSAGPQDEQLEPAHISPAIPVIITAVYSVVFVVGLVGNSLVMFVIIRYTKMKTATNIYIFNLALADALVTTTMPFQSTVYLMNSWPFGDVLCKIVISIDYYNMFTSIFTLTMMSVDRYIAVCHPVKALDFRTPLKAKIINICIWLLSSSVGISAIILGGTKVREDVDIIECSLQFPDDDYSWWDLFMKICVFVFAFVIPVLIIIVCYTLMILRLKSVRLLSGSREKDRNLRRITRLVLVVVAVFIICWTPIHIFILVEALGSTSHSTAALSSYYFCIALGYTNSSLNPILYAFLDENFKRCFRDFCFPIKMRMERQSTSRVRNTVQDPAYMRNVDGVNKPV
UniProt Q60492, whole entry, looked up: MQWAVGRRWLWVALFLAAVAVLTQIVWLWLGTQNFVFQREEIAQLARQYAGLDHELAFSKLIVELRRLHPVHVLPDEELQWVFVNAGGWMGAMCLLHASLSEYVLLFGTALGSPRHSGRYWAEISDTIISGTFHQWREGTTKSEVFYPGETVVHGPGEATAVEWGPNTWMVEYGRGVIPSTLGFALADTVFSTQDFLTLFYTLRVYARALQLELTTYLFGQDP
UniProt P33533, whole entry, looked up: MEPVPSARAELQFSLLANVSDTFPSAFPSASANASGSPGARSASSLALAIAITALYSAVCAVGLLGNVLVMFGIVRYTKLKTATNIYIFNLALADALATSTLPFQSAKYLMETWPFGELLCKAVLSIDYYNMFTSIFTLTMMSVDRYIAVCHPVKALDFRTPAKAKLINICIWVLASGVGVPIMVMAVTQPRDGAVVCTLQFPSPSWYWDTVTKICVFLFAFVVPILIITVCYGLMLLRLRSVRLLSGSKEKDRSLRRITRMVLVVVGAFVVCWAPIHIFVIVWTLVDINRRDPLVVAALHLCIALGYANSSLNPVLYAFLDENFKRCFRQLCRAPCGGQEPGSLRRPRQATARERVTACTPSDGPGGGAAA

Tests used:
[1] = target: Kappa-type opioid receptor (Cavia porcellus, UniProt P41144); assay: Displacement of [3H]-U69593 from KOR in guinea pig brain membranes measured by competitive radioligand receptor binding assay
[2] = target: Sigma non-opioid intracellular receptor 1 (Cavia porcellus, UniProt Q60492)
[3] = target: Delta-type opioid receptor (Rattus norvegicus, UniProt P33533); assay: Displacement of [3H]-DPDPE from DOR in rat brain membranes measured by competitive radioligand receptor binding assay

Structure (SMILES)	Ki [1]	Ki [2]	Ki [3]
O=C(Cc1ccc(Cl)c(Cl)c1)N1CCC2CC[C@@H](N3CCCC3)C1C2 (stereo partly drawn)	0.026 µM	–	–
CN(C)[C@@H]1CCC2CCN(C(=O)Cc3ccc(Cl)c(Cl)c3)C1C2 (mixture of isomers)	0.023 µM	0.17 µM	> 1 µM
O=C(Cc1ccc(Cl)c(Cl)c1)N1CC[C@@H]2CC[C@H](N3CCCC3)[C@H]1C2	0.123 µM	0.014 µM	–
O=C(Cc1ccc(Cl)c(Cl)c1)N1CC[C@H]2CC[C@@H](N3CCCC3)[C@@H]1C2	0.018 µM	0.0065 µM	–
